Source: patent US9765037B2 (dated 2017)

Sequences of proteins named here, by UniProt entry; tags and fusion partners are left off. Residues count along the entry.
UniProt Q9BJF5, 1-507: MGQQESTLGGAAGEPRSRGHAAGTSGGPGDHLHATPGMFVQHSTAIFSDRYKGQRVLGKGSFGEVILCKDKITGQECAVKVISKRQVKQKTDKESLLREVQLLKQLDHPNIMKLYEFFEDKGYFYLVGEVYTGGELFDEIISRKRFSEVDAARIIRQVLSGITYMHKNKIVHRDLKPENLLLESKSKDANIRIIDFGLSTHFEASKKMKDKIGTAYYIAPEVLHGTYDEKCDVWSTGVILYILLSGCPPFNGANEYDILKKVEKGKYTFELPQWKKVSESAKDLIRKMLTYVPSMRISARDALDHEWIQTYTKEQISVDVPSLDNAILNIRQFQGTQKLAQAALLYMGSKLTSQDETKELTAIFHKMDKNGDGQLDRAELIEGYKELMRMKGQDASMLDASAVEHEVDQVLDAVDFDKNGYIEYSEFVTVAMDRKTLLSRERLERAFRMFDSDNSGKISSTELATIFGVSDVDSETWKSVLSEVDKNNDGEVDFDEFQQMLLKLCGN
UniProt P00519, 242-493: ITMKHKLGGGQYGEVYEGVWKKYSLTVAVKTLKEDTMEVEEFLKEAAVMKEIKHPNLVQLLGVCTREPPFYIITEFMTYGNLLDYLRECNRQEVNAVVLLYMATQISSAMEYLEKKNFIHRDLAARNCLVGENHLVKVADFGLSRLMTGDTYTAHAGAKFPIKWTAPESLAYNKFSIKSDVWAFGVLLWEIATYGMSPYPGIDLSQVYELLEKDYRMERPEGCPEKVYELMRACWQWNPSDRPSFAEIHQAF
UniProt P00519, whole entry, looked up: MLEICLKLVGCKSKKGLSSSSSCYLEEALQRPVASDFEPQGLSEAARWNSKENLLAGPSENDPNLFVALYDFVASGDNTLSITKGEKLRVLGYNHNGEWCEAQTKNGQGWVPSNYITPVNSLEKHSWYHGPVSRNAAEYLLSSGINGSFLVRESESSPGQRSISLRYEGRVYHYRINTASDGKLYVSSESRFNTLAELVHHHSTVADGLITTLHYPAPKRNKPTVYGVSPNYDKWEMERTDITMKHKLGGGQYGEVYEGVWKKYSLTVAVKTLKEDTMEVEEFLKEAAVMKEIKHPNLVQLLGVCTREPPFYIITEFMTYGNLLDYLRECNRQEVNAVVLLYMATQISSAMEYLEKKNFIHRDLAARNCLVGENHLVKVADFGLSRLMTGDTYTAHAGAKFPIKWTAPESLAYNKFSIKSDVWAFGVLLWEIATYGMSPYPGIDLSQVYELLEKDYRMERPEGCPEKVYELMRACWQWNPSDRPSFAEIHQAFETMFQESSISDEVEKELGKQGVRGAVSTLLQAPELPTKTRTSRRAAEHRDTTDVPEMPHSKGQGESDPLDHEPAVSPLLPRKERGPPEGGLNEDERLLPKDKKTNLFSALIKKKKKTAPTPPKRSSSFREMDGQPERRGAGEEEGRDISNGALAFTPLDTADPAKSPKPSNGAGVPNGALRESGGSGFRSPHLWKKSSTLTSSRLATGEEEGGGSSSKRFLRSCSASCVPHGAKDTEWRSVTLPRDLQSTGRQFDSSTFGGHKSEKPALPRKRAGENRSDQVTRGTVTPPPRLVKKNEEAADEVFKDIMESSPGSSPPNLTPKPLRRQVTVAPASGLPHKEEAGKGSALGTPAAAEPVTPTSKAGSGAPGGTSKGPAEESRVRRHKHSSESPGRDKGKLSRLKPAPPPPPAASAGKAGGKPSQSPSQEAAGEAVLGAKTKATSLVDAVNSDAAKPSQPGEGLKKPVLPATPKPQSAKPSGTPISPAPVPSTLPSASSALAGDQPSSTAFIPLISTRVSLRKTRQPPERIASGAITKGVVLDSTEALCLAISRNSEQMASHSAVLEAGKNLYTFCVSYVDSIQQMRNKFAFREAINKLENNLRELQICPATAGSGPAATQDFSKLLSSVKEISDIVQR

Experiments:
TgCDPK1 [1] = biological target: T1, TgCDPK1 (Toxoplasma gondii, UniProt Q9BJF5); conditions: read-out: IC50 (μM) TgCDPK1
glioma derived (SF539) = assay: Growth inhibition of human cell line SF539; conditions: read-out: GI50 (μM) SF539
[2] = system: human promyelocytic leukemia (HL-60); assay: Growth inhibition of human cell line HL-60; conditions: read-out: GI50 (μM) HL60
[3] = system: human lymphocyte (CRL8155); assay: Growth inhibition of human cell line CRL8155; conditions: read-out: GI50 (μM) CRL8155
[4] = system: colorectal carcinoma (HC 2998); assay: Growth inhibition of human cell line HC 2998; conditions: read-out: GI50 (μM) HCC2998
SrcKD = SrcKD (Homo sapiens (Human), UniProt P12931); assay: Tyrosine kinase IC50, SrcKD; conditions: read-out: IC50 (μM) SrcKD
AblKD = AblKD (Homo sapiens (Human), UniProt P00519); assay: Tyrosine kinase IC50, AblKD; conditions: read-out: IC50 (μM) AblKD
Abl3D = Abl3D (Homo sapiens, UniProt P00519); assay: Tyrosine kinase IC50, Abl3D; conditions: read-out: IC50 (μM) Abl3D
[5] = system: P. falciparum NF-54 strain gametocytes; type: cell-based, Plasmodium falciparum
in vitro = conditions: mouse, microsomes
TgCDPK1 [6] = biological target: T1, TgCDPK1; assay: biochemical
TgCDPK1 [7] = biological target: T1, TgCDPK1; assay: biochemical; remark: listed apart in the source

| SMILES | GI50 (glioma derived (SF539)) [µM] | GI50 [2] [µM] | GI50 [3] [µM] | GI50 [4] [µM] | further results |
| --- | --- | --- | --- | --- | --- |
| CC(C)(C)n1nc(-c2cccc3ccccc23)c2c(N)ncnc21 [Compound 1, 1-tert-butyl-3-(naphthalen-1-yl)-1H-pyrazolo[3,4-d]pyrimidin-4-amine] |  |  |  |  | IC50 (TgCDPK1 [1]): 1.62 µM |
| CC(C)(C)n1nc(-c2ccc3ccccc3c2)c2c(N)ncnc21 [Compound 2, 1-tert-butyl-3-(naphthalen-2-yl)-1H-pyrazolo[3,4-d]pyrimidin-4-amine] | > 10 | > 10 | > 10 | > 10 |  |
| CC(C)n1nc(Cc2cccc3ccccc23)c2c(N)ncnc21 [Compound 3, 1-isopropyl-3-(naphthalen-1-ylmethyl)-1H-pyrazolo[3,4-d]pyrimidin-4-amine] | > 10 | > 10 | > 10 | > 10 |  |
| CC(C)(C)n1nc(Cc2cccc3ccccc23)c2c(N)ncnc21 [Compound 5d, 1-tert-butyl-3-(naphthalen-1-ylmethyl)-1H-pyrazolo[3,4-d]pyrimidin-4-amine] |  |  |  |  | IC50 (SrcKD): 2.2 µM |
| CCN1CCC(Cn2nc(Cc3cccc4ccccc34)c3c(N)ncnc32)CC1 [Compound 5n, 1-((1-ethylpiperidin-4-yl)methyl)-3-(naphthalen-1-ylmethyl)-1H-pyrazolo[3,4-d]pyrimidin-4-amine] | > 10 | > 10 | > 10 | > 10 |  |
| CS(=O)(=O)N1CCC(n2nc(Cc3cccc4ccccc34)c3c(N)ncnc32)CC1 [Compound 5p, 1-(1-(methylsulfonyl)piperidin-4-yl)-3-(naphthalen-1-ylmethyl)-1H-pyrazolo[3,4-d]pyrimidin-4-amine] | > 10 | > 10 | > 10 | > 10 |  |
| CC(C)n1nc(-c2ccc(Cl)c(Cl)c2)c2c(N)ncnc21 [Compound 7c, 3-(3,4-dichlorophenyl)-1-isopropyl-1H-pyrazolo[3,4-d]pyrimidin-4-amine] | > 10 | > 10 | > 10 | > 10 |  |
| COc1ccc2cc(-c3nn(C(C)C)c4ncnc(N)c34)ccc2c1 [Compound 7q, 1-isopropyl-3-(6-methoxynaphthalen-2-yl)-1H-pyrazolo[3,4-d]pyrimidin-4-amine] |  |  |  |  | IC50 (AblKD): 0.82 µM |
| CC(C)n1nc(-c2cnc3ccccc3c2)c2c(N)ncnc21 [Compound 7t, 1-isopropyl-3-(quinolin-3-yl)-1H-pyrazolo[3,4-d]pyrimidin-4-amine] | > 10 | > 10 | > 10 | > 10 |  |
| CC(C)n1nc(-c2cc3c(Cl)cccc3[nH]2)c2c(N)ncnc21 [Compound 26, 3-(4-chloro-1H-indol-2-yl)-1-isopropyl-1H-pyrazolo[3,4-d]pyrimidin-4-amine] |  |  |  |  | IC50 (Abl3D): 0.304 µM |
| CCOc1ccc2cc(-c3nn(CC4CCNCC4)c4ncnc(N)c34)ccc2c1 [Compound 29, 3-(6-ethoxynaphthalen-2-yl)-1-(piperidin-4-ylmethyl)-1H-pyrazolo[3,4-d]pyrimidin-4-amine] |  |  |  |  | sporozoite load in infected salivary glands, diminished relative to untreated controls [5]: 86%; suppression of P. falciparum exflagellation events, repeat experiment ([5]; 0.3 μM): > 90%; half-life (in vitro): > 1 h |
| CCOc1ccc2cc(-c3nn(C4CCN(C)CC4)c4ncnc(N)c34)ccc2c1 [Compound 148] |  |  |  |  | IC50 (SrcKD): 5.58 µM |
| CC(C)(C)n1nc(-c2cccc3ccccc23)c2c(N)ncnc21 [NA-PP1] |  |  |  |  | IC50 (TgCDPK1 [6]): 0.484 µM; IC50 (TgCDPK1 [7]; Inhibitor IC50 values, TgCDPK1, KinaseGlo): 0.816 µM; IC50 (TgCDPK1 [7]; Wild type TgCDPK1 (IC50 in μM)): 0.989 µM |

Read-outs that look alike come from different tables or passages of the source.
